The values that follow are results of earlier work, collected in US20110136106A1, “METHODS FOR DETECTING RICIN AND RELATED COMPOUNDS AND USES THEREOF” (published 2011).

Protein sequences, listed by entry. Tags and fused reporters are not part of them. Lines headed by an entry give the natural chain unless they say otherwise; changes in a name come on top.
UniProt P22983: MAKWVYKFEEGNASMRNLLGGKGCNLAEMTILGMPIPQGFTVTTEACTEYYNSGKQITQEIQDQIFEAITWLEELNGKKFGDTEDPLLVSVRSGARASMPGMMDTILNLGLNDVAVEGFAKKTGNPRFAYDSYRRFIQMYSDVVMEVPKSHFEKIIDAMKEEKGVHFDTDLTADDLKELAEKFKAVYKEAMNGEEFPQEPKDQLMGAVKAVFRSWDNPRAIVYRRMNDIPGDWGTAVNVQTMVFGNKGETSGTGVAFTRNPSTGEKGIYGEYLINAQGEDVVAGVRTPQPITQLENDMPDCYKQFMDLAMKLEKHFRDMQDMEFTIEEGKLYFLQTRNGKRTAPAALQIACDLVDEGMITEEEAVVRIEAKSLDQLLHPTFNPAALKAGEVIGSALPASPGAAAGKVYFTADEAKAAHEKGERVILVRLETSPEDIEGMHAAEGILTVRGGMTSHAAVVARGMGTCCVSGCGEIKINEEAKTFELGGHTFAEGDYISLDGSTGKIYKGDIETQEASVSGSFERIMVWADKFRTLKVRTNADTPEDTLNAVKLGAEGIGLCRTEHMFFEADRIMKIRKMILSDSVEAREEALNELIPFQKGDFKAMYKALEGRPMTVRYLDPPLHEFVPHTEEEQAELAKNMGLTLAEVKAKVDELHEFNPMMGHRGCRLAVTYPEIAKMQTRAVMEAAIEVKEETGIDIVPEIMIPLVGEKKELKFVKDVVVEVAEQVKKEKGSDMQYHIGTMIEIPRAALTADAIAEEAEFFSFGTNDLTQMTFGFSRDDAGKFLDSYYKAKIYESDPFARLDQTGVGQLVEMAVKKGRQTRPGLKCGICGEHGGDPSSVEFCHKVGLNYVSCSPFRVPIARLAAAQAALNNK
UniProt P49435: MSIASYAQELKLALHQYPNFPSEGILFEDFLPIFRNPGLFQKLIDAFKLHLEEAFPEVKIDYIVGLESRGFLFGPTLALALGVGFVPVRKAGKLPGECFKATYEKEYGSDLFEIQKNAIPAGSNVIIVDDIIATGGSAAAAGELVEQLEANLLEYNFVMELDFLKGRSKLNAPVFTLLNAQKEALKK

The Km is the substrate concentration at which the rate is half of its maximum.

One data set concerns the target PPDK (Clostridium symbiosum, UniProt P22983). Conditions: AMP as PPDK substrate [21]; cited from earlier work.
For another data set, the target named is APRTase (Saccharomyces cerevisiae, UniProt P49435). As to conditions: adenine as APRTase substrate [16]; cited from earlier work.

Consider `Nc1ncnc2c1ncn2[C@@H]1O[C@H](COP(=O)(O)O)[C@@H](O)[C@H]1O`, for which the Km at PPDK was 9 µM.
Take `Nc1ncnc2nc[nH]c12`: the Km at APRTase is 9 µM.
